Results published in patent US9260410B2, “P38 MAP kinase inhibitors” (Respivert Ltd., priority 2010, dated 2016).

Amino acid sequences for entries named in this document (tags omitted). A change or cut given only in a name is not applied to a line headed by its entry.
UniProt P53778: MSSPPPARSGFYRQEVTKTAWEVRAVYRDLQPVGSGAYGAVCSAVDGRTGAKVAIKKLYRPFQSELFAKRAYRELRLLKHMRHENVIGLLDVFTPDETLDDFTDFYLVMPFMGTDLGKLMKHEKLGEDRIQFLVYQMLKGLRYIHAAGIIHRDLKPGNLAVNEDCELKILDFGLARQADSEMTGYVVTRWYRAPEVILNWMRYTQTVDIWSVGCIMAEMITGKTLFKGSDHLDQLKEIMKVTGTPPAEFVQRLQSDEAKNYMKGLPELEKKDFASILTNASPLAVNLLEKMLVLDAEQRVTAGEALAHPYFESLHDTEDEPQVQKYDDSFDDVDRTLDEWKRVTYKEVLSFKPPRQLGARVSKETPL
UniProt P12931, whole entry, looked up, species assumed: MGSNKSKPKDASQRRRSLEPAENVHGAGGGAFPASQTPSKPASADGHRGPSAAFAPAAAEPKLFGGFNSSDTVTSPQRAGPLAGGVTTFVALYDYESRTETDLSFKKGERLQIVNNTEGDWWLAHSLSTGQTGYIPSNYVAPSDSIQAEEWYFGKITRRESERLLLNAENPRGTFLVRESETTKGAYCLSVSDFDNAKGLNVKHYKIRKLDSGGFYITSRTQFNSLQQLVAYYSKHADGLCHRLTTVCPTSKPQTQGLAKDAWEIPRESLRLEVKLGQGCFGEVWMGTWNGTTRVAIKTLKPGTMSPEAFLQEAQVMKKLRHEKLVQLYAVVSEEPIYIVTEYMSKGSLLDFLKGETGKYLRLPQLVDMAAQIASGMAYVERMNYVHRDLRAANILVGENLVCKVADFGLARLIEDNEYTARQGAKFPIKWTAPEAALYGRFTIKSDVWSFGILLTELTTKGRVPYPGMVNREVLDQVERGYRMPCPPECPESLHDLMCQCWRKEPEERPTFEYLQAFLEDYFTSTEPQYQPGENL
UniProt Q16539, whole entry, looked up: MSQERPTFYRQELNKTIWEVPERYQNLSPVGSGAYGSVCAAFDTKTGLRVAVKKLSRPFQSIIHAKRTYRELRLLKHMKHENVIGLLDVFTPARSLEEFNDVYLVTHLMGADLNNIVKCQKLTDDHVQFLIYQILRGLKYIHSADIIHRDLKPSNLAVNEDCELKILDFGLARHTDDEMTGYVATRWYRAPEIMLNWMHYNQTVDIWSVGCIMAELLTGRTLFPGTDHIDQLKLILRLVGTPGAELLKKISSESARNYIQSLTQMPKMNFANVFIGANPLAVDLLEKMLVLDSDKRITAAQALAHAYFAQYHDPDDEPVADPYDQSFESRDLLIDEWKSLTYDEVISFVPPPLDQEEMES

Columns and labels:
p38 MAPKγ (MAPK12) = p38 MAPKγ (MAPK12) (Homo sapiens (Human), UniProt P53778); conditions: read-out: Enzyme Inhibition IC50 (nM) p38γ
c-Src = c-Src (Homo sapiens (Human), UniProt P12931); conditions: read-out: Enzyme Inhibition IC50 (nM) c-Src; NE = No effect at a concentration of 1 ug/ml
[1] = target: p38 MAPKα isoform (MAPK14) (Homo sapiens (Human), UniProt Q16539); conditions: read-out: Enzyme Inhibition IC50 (nM) p38α

CC(=O)Nc1cc(Oc2ccc(NC(=O)Nc3cc(C(C)(C)C)nn3-c3ccc(C)cc3)c3ccccc23)ccn1 [Example 3, N-(4-((4-(3-(3-(tert-Butyl)-1-(p-tolyl)-1H-pyrazol-5-yl)ureido)naphthalen-1-yl)oxy)pyridin-2-yl)acetamide]
IC50 (p38 MAPKγ (MAPK12)): 146 nM
IC50 (c-Src): < 18 nM
IC50 [1]: 6.7 nM
